What all share (test): FOREST: bead pull-down of RNA structure library v1, barcode microarray; U1A/LIN28A: 20 mM HEPES pH 7.5, 80 mM KCl, 20 mM NaCl, 10% glycerol, 2 mM DTT, 0.1 ug/uL BSA, 4 C; BG4/CIRBP/DHX36: 10 mM Tris-HCl pH 7.5, 100 mM KCl (or LiCl),; high values mean tight binding
One experiment concerns the target T1, LIN28A (human?, UniProt Q9H9Z2 1-209).
T1 sequence: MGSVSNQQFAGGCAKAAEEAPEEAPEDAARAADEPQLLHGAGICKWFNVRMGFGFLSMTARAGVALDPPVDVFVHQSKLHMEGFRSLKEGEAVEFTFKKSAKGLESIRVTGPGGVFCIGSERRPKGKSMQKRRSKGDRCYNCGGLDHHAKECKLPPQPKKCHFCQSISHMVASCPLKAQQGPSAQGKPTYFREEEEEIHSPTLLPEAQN

A further experiment deals with T2, CIRBP (Homo sapiens, UniProt Q14011 1-172).
T2 sequence: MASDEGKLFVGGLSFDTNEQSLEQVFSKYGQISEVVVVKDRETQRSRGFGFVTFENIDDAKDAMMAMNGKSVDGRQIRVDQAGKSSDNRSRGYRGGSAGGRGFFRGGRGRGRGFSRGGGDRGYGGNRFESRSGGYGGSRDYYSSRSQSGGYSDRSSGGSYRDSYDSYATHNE

For a further experiment, the target named is T3, DHX36 (Homo sapiens, UniProt Q9H2U1 1-1008).
T3 sequence: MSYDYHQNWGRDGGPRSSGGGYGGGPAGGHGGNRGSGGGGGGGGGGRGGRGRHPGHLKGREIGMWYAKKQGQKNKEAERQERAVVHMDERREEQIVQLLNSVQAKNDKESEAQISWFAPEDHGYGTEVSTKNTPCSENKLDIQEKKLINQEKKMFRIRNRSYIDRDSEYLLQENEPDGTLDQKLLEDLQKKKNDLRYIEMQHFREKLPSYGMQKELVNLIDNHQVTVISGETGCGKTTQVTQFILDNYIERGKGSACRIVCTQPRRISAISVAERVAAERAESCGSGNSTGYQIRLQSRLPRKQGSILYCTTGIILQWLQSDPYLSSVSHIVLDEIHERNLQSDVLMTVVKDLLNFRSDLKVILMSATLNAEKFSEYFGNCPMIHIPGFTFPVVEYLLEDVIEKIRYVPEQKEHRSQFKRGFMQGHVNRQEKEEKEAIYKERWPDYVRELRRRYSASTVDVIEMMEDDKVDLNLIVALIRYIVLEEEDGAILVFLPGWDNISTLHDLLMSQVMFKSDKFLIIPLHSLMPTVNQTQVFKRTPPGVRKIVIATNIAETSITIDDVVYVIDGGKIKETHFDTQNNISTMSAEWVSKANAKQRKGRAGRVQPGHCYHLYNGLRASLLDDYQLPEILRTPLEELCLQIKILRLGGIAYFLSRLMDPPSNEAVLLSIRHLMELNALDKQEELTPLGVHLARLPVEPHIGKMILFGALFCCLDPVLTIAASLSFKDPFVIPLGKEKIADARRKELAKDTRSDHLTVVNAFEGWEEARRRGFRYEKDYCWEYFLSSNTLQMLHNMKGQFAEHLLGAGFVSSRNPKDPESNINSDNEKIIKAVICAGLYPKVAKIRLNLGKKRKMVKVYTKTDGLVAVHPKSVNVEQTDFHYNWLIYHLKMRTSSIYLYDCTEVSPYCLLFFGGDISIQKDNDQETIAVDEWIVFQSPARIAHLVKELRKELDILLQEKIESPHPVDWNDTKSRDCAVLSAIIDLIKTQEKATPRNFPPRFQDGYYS

Some of the results follow.

B1: hsa-mir-346 (structured_RNA)
RNA: GGGAAAUUUGACUGCCGCGUGACUAAGGGGUGUACGAAGUUUCAGCCUCUCUGUUGCUCUGAAGGAGGCUGAAGCUUCGUGCAC
B1: the binding signal with LIN28A is 0.189 z-score; in the experiment with CIRBP, 0.313 z-score; with DHX36, -0.443 z-score.

B2: hsa-mir-450a-2 (structured_RNA)
RNA: GGGAUACGAAACACCCGGACCUGAUAGAGGUGUACGAAGUUUCAGCUAAUAUGUAAUAUAAAUGUAUUGGCUGAAGCUUCGUGCAC
Take B2: the binding signal with LIN28A was 0.225 z-score; with CIRBP it was -0.69 z-score; with DHX36, -0.747 z-score.

B3: hsa-mir-3973 (structured_RNA)
RNA: GGGAUGUCGAAGUGAUCGACCGCUCCUUGGUGUACGAAGUUUCAGCUUGUUACAUUUUAGGAUUGCUUGCCCCUUGCUCCAAUGGUGCAGGCAGAAGAAAUGCAAACAAGCUGAAGCUUCGUGCAC
Consider B3, for which the binding signal is 0.214 z-score with LIN28A, -0.262 z-score with CIRBP and 0.655 z-score with DHX36.

B4: hsa-mir-92b (structured_RNA)
RNA: GGGACCAUGCGUGACGGGUCAAAUAAACGGUGUACGAAGUUUCAGCAGUGUUGUUUUUUCCCCCGCCAAUAUUGCUGAAGCUUCGUGCAC
For the molecule B4, the binding signal in the experiment with LIN28A was 0.227 z-score; with CIRBP it was 0.53 z-score; in the experiment with DHX36 it was -0.0495 z-score.

B5: hsa-mir-6507 (structured_RNA)
RNA: GGGACGCACAUAGCAACGGUCCACGAAAGGUGUACGAAGUUUCAGCUUUGUAUUGUGGUUCAGUACCAUGCAAAGCUGAAGCUUCGUGCAC
As for B5, the binding signal with LIN28A was 0.221 z-score; with CIRBP, -0.153 z-score; with DHX36 it was -0.741 z-score.

B6: hsa-mir-6773 (structured_RNA)
RNA: GGGAAUGGGGCUAUAGGUAUUAUAACCGGGUGUACGAAGUUUCAGCCAGGAUUAGUGCUUAUGCUAAGAUGUCUUCACUGGCUGAAGCUUCGUGCAC
For B6, the binding signal was 0.179 z-score with LIN28A, 0.518 z-score in the experiment with CIRBP and -0.0785 z-score with DHX36.

B7: NEAT1_ParasoR_ID30 (structured_RNA)
RNA: GGGACUGUAUAUCCGGGGUCGAAUUAACGGUGUACGAAGUUUCAGCGUAUACCUUUUUGUACGCUGAAGCUUCGUGCAC
As for B7, the binding signal in the experiment with LIN28A was 0.181 z-score; with CIRBP it was -0.74 z-score; with DHX36 it was -0.523 z-score.

B8: hsa-mir-3688-1 (structured_RNA)
RNA: GGGAAGCCUGACUAGAAGCUCUUCGAUCGGUGUACGAAGUUUCAGCCAUAUGUAUGUAUGUAUGUCUGUUACACAUAUGGCUGAAGCUUCGUGCAC
With B8, the binding signal is 0.229 z-score in the experiment with LIN28A, -0.155 z-score in the experiment with CIRBP and -0.799 z-score with DHX36.

B9: hsa-mir-4308 (structured_RNA)
RNA: GGGAGUACAUUGUAGGACGUAGAUAACCGGUGUACGAAGUUUCAGCUGGACAGAAAUUUCCUUUUGAGGAAAUCUUUCCCGCUGAAGCUUCGUGCAC
B9: the binding signal in the experiment with LIN28A is 0.206 z-score; in the experiment with CIRBP, -0.0984 z-score; in the experiment with DHX36, -0.379 z-score.

B10: hsa-mir-6728 (structured_RNA)
RNA: GGGAUGGCUUCUAAUGAGGACACCACAAGGUGUACGAAGUUUCAGCGAGGGGCUUACUGCCCUGUGGGGCUCUCUGGACCCAGUGCCAUGCUUCUCGCUGAAGCUUCGUGCAC
Turning to B10, the binding signal in the experiment with LIN28A was 0.228 z-score; with CIRBP, -1.02 z-score; with DHX36 it was 0.949 z-score.

B11: hsa-mir-4779 (structured_RNA)
RNA: GGGAAAGUCACACGCUCGCAGCUACGUUGGUGUACGAAGUUUCAGCCCUAGAGUCCAUUCUUUACUCUAGGGCUGAAGCUUCGUGCAC
Turning to B11, the binding signal with LIN28A is 0.212 z-score; with CIRBP, -1.16 z-score; with DHX36, 0.0924 z-score.

B12: hsa-mir-3128 (structured_RNA)
RNA: GGGAAACCGAUAUCAGGCAUGACAUCUGGGUGUACGAAGUUUCAGCUCAUUUUCCUUAAAAAAUGAGCUGAAGCUUCGUGCAC
For the molecule B12, the binding signal is 0.23 z-score in the experiment with LIN28A, 0.0592 z-score with CIRBP and -1.17 z-score in the experiment with DHX36.

B13: hsa-mir-320a (structured_RNA)
RNA: GGGACACCCUCGGGCAGAGAGACAUUCAGGUGUACGAAGUUUCAGCUCUUCCCGGAGUCGGGAAAAGCUGAAGCUUCGUGCAC
B13: the binding signal in the experiment with LIN28A is 0.195 z-score; with CIRBP it was -0.59 z-score; with DHX36, -0.167 z-score.

B14: hsa-mir-544a (structured_RNA)
RNA: GGGAGAUAAGGUUAAGAUGAUGGCAAGGGGUGUACGAAGUUUCAGCGAUUCUGAUUCAGGGACCAAGAUUCGCUGAAGCUUCGUGCAC
For the molecule B14, the binding signal with LIN28A is 0.232 z-score; with CIRBP, 1.2 z-score; with DHX36, 1.02 z-score.

B15: hsa-mir-6870 (structured_RNA)
RNA: GGGAAGAAGAUGACGGCUCAAUGCAAUCGGUGUACGAAGUUUCAGCUUGAACUUCAUUUCUCAUGCUCAGCUGAAGCUUCGUGCAC
Turning to B15, the binding signal with LIN28A was 0.175 z-score; with CIRBP, 0.7 z-score; with DHX36, -0.684 z-score.

B16: hsa-mir-6872 (structured_RNA)
RNA: GGGAAAUGCUGUGUGCGCUCCAUGGAUUGGUGUACGAAGUUUCAGCAAGGCCAGGACCCGCUGACCCAUGCUGAAGCUUCGUGCAC
Take B16: the binding signal is 0.188 z-score with LIN28A, -0.206 z-score with CIRBP and 0.53 z-score with DHX36.

B17: hsa-mir-1234 (structured_RNA)
RNA: GGGACAAGCCAUGAGGAUGUACCAGAUUGGUGUACGAAGUUUCAGCCGGGGGGGGCCCGGGGACGGCUUGGGCCUGCCUAGUCGGGCUGAAGCUUCGUGCAC
As for B17, the binding signal worked out at 0.226 z-score in the experiment with LIN28A, 0.706 z-score with CIRBP and 0.508 z-score with DHX36.

B18: hsa-mir-107 (structured_RNA)
RNA: GGGAGAUUCGAUGCAAACUGCACGAGCCGGUGUACGAAGUUUCAGCGCCUUGUGGCAUGGAGUUCAAGCGCUGAAGCUUCGUGCAC
For B18, the binding signal with LIN28A was 0.22 z-score; in the experiment with CIRBP, -0.00137 z-score; with DHX36, -0.493 z-score.

B19: hsa-mir-1255b-2 (structured_RNA)
RNA: GGGACUAUAAGCUGAAUGAUGACUUGCCGGUGUACGAAGUUUCAGCGGUUUGCGCCUCAAGAAACCGCUGAAGCUUCGUGCAC
With B19, the binding signal with LIN28A is 0.179 z-score; in the experiment with CIRBP, -0.316 z-score; in the experiment with DHX36, -0.276 z-score.

B20: hsa-mir-554 (structured_RNA)
RNA: GGGAAAAGAGUCCGCUUUCCCCGUUGUAGGUGUACGAAGUUUCAGCCAGUACUGGUCUUAGACUGGCUGAAGCUUCGUGCAC
For B20, the binding signal with LIN28A was 0.225 z-score; in the experiment with CIRBP it was -0.598 z-score; with DHX36, -0.304 z-score.

B21: hsa-mir-4317 (structured_RNA)
RNA: GGGAAGUACUAAGCUCAUCGCUGUGAACGGUGUACGAAGUUUCAGCGUUUAUUUUGUAGCGCUGAAGCUUCGUGCAC
With B21, the values for the binding signal with LIN28A, with CIRBP and with DHX36 were 0.222 z-score, 0.741 z-score and -0.207 z-score, respectively.

B22: hsa-mir-6089-2_6089-1 (structured_RNA)
RNA: GGGAAGGUAAAAGUCGAUUAGGAACCAUGGUGUACGAAGUUUCAGCCGUGCGCCAGUGGAGGCUGAAGCUUCGUGCAC
As for B22, the values for the binding signal with LIN28A, with CIRBP and in the experiment with DHX36 were 0.185 z-score, 0.448 z-score and -0.102 z-score, respectively.

B23: hsa-mir-6068 (structured_RNA)
RNA: GGGAAGCGCCGCGUUCAUCUUUAAGUGCGGUGUACGAAGUUUCAGCGUGGCUUGUGGCUGAGUGUCACGCUGCGCUGAAGCUUCGUGCAC
As for B23, the figures for the binding signal with LIN28A, with CIRBP and in the experiment with DHX36 were 0.183 z-score, 0.749 z-score and 0.29 z-score, respectively.

B24: hsa-mir-5681b (structured_RNA)
RNA: GGGAAACGAUAGGGCCGGUGUCAAAAUCGGUGUACGAAGUUUCAGCUAGUCUAAUAGGGACUAGCUGAAGCUUCGUGCAC
B24: the binding signal in the experiment with LIN28A is 0.208 z-score; in the experiment with CIRBP, -0.796 z-score; with DHX36, 0.337 z-score.

B25: hsa-mir-4732 (structured_RNA)
RNA: GGGAGAUCCCGAGGACGGCAAAGCAAAGGGUGUACGAAGUUUCAGCAAGCUGUGUGUGUCCAGCGCUGAAGCUUCGUGCAC
In the case of B25, the binding signal was 0.171 z-score with LIN28A, 1 z-score with CIRBP and -0.0589 z-score in the experiment with DHX36.

B26: hsa-mir-6761 (structured_RNA)
RNA: GGGAACCAUCGAUCUCGGAAAACGUUGAGGUGUACGAAGUUUCAGCGGCAGGUGCCUCCGUGUUGCCGAACCCUCCUGCUGAAGCUUCGUGCAC
In the case of B26, the binding signal with LIN28A was 0.228 z-score; with CIRBP, 0.224 z-score; in the experiment with DHX36, -0.506 z-score.

The record behind these values is publication PMC7723054.
